The series can be described thus: Metabolic stability in pooled human liver microsomes (half-life). Format: in vitro ADME. The following applies: pH 7.6, 37° C., 1 μM test compound, read-out: Half-life t1/2. As to the method:
The metabolic stability of the compounds according to the invention may be investigated as follows:
The metabolic degradation of the test compound is assayed at 37° C. with pooled human liver microsomes. The final incubation volume of 100 μl per time point contains TRIS buffer pH 7.6 at room temperature (0.1 M), magnesium chloride (5 mM), microsomal protein (1 mg/mL) and the test compound at a final concentration of 1 μM. Following a short preincubation period at 37° C., the reactions are initiated by addition of beta-nicotinamide adenine dinucleotide phosphate, reduced form (NADPH, 1 mM), and terminated by transferring an aliquot into solvent after different time points. After centrifugation (10000 g, 5 min), an aliquot of the supernatant is assayed by LC-MS/MS for the amount of parent compound. The half-life is determined by the slope of the semi-logarithmic plot of the concentration-time profile.
A general note: Liver microsomes are a subcellular fraction often used to study metabolism.

Molecules are shown by their SMILES.

Regarding `CC(C)(NC(=O)[C@H]1[C@@H]2CNC[C@@H]21)c1ncnc2ccccc12` [Example 89], the half-life at 1 μM was > 2.17 h.

For the molecule `CC(C)(NC(=O)[C@H]1[C@@H]2CNC[C@@H]21)c1noc2c(Cl)cccc12` [Example 103], the half-life at 1 μM is > 2.17 h.

On to `Cc1nnc(C(C)(C)NC(=O)[C@H]2[C@@H]3CNC[C@@H]32)c2ccccc12` [Example 77], for which the half-life at 1 μM was > 2.17 h.

For `CC(C)(NC(=O)[C@H]1[C@@H]2CNC[C@@H]21)c1cncc2ccccc12` [Example 90], the half-life at 1 μM was > 2.17 h.

As to `Cc1cccc2c(C(C)(C)NC(=O)[C@H]3[C@@H]4CNC[C@@H]43)noc12` [Example 92], the half-life at 1 μM was > 2.17 h.

Consider `CC(C)(NC(=O)[C@H]1[C@@H]2CNC[C@@H]21)c1noc2c(C3CC3)cccc12` [Example 104], for which the half-life at 1 μM was > 2.17 h.

These data come from patent publication US10166214B2, “Somatostatin receptor subtype 4 (SSTR4) agonists” (Centrexion Therapeutics Corporation, priority 2013, dated 2019).
